Like-named read-outs stand apart in the source and are kept apart here.
Key:
[1] = molecular target: Beta Secretase enzyme (BACE) (Homo sapiens (Human), UniProt P56817); assay: In vitro enzymatic BACE FRET assay; format: biochemical; settings: read-out: BACE 1 FRET assay IC50
Experimental: In Vitro Enzymatic BACE FRET (Fluorescence Resonance Energy Transfer) Assay (Enzyme Assay Data in the Example Table I)
The assay buffer used in this screen is 0.05 M acetate, pH 4.2, 10% DMSO final, 100 uM genapol (which is a nonionic detergent, below its Critical Micelle Concentration). […] This assay is effectively started by the addition of FRET substrate (50 nM) and the combination is incubated for one hour. The FRET assay is terminated with by addition of Tris buffer, which raises the pH to neutrality, and the fluorescence is determined. The FRET substrate is a peptide with commercially available fluorophore and quencher, on opposite sides of the BACE cleavage site.

Sequences of proteins named here, by UniProt entry; tags and fusion partners are left off. Residues count along the entry.
UniProt P56817, 46-501: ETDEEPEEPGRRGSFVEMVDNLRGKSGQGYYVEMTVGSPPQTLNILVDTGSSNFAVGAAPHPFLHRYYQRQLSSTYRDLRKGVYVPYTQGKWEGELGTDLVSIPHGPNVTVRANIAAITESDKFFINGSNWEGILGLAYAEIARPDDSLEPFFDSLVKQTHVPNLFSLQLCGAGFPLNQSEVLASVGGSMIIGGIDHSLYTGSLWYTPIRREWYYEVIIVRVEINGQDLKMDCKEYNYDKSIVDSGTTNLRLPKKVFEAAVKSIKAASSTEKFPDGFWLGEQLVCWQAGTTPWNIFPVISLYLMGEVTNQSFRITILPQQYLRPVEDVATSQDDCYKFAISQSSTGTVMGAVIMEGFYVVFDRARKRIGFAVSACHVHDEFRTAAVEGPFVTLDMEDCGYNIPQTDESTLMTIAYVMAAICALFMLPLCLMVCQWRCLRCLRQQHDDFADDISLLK

[2] = system: Aβ40 in conditioned medium of cells stably expressing Amyloid Precursor Protein (APP); assay: In vitro BACE cell-based assay (Aβ40 sandwich ELISA); settings: Homo sapiens, read-out: HEK cell assay IC50
Experimental: In Vitro BACE Cell-Based Assay
The cell-based assay measures inhibition or reduction of Aβ40 in conditioned medium of test compound treated cells expressing amyloid precursor protein.
Cells stably expressing Amyloid Precursor Protein (APP) were plated at a density of 40K cells/well in 96 well plates (Costar). The cells were cultivated for 24 hours at 37° C. and 5% CO2 in DMEM supplemented with 10% FBS. The test compounds were then added to cells in 10-point dose response concentrations with the starting concentration being either 100 μM or 10 μM. The compounds were diluted from stock solutions in DMSO and the final DMSO concentration of the test compounds on cells was 0.1%. After 24 h of incubation with the test compounds the supernatant conditioned media was collected and the Aβ 40 levels were determined using a sandwich ELISA. The IC50 of the compound was calculated from the percent of control or percent inhibition of Aβ 40 as a function of the concentration of the test compound.
The sandwich ELISA to detect Aβ 40 was performed in 96 well microtiter plates, which were pre-treated with goat anti-rabbit IgG (Pierce). The capture and detecting antibody pair that were used to detect Aβ 40 from cell supernatants were affinity purified pAb40 (Biosource) and biotinylated 6E10 (Signet Labs Inc.), respectively. The optimal concentration for the pAb40 antibody was 3 μg/ml in Superblock/TBS (Pierce) that was supplemented with 0.05% Tween 20 (Sigma).
Cellular supernatants were incubated with the capture antibody for 3 h at 4° C., followed by 3 wash steps in TBS-tween (0.05%). The detecting antibody incubation was for 2 h at 4° C., again followed by the wash steps as described previously. The final readout of the ELISA is Time-Resolved Fluorescence (counts per minute) using Delfia reagents Streptavidin-Europium and Enhancement solutions (Perkin Elmer) and the Victor 2 multilabel counter (Perkin Elmer).

[3] = HEK293, average IC50, HEK cells
[4] = average IC50, BACE enzyme assay
[5] = HEK293, average IC50, HEK cell assay

SMILES: Cc1cc(NC(=O)c2ccc(F)cn2)cc([C@]2(CF)C[C@@H](C(F)(F)F)OC(N)=N2)c1F [Example 223, N-(3-((4S,6S)-2-amino-4-(fluoromethyl)-6-(trifluoromethyl)-5,6-dihydro-4H-1,3-oxazin-4-yl)-4-fluoro-5-methylphenyl)-5-fluoropicolinamide]
- IC50 ([1]; average): 57 nM
- IC50 ([2]; HEK293, HEK cells, average): 29 nM

SMILES: C[C@@]1(c2cc(NC(=O)c3ccc(C(F)F)cn3)cc(F)c2F)C[C@@H](C(F)(F)F)OC(N)=N1 [Example 200, N-(3-((4S,6S)-2-amino-4-methyl-6-(trifluoromethyl)-5,6-dihydro-4H-1,3-oxazin-4-yl)-4,5-difluorophenyl)-5-(difluoromethyl)picolinamide]
- IC50 ([1]; average): 40 nM
- IC50 ([2]; HEK293, HEK cells, average): 14 nM

SMILES: COc1cnc2c(Nc3ccc(F)c([C@]4(CF)C[C@@H](C(F)(F)F)OC(N)=N4)c3)nccc2c1 [Example 12, (4S,6S)-4-(2-fluoro-5-((3-methoxy-1,7-naphthyridin-8-yl)amino)phenyl)-4-(fluoromethyl)-6-(trifluoromethyl)-5,6-dihydro-4H-1,3-oxazin-2-amine]
- IC50 ([1]; average IC50): 375 nM
- IC50 [2, 3]: 163 nM

SMILES: N#Cc1cnc2c(Nc3cc(F)c(F)c([C@]4(CF)C[C@@H](C(F)(F)F)OC(N)=N4)c3)nccc2c1 [Example 162, 8-((3-((4S,6S)-2-amino-4-(fluoromethyl)-6-(trifluoromethyl)-5,6-dihydro-4H-1,3-oxazin-4-yl)-4,5-difluorophenyl)amino)-1,7-naphthyridine-3-carbonitrile]
- IC50 [1, 4]: 37 nM
- IC50 [2, 5]: 271 nM

SMILES: CC#CCOc1cnc(C(=O)Nc2cc(F)c(F)c([C@]3(C)C[C@@H](C(F)(F)F)OC(N)=N3)c2)c(C)c1 [Example 188, N-(3-((4S,6S)-2-amino-4-methyl-6-(trifluoromethyl)-5,6-dihydro-4H-1,3-oxazin-4-yl)-4,5-difluorophenyl)-5-(but-2-yn-1-yloxy)-3-methylpicolinamide]
- IC50 ([1]; average): 6 nM
- IC50 ([2]; HEK293, HEK cells, average): 12 nM

SMILES: C[C@@]1(c2nc(NC(=O)c3ncc(C#N)cc3Cl)ccc2F)C[C@@H](C(F)(F)F)OC(N)=N1 [Example 82, N-(6-((4S,6S)-2-amino-4-methyl-6-(trifluoromethyl)-5,6-dihydro-4H-1,3-oxazin-4-yl)-5-fluoropyridin-2-yl)-3-chloro-5-cyanopicolinamide]
- IC50 ([1]; average IC50): 18.8 nM
- IC50 [2, 3]: 4.5 nM

SMILES: C[C@@]1(c2cc(NC(=O)c3ncc(C#N)cc3Cl)cc(F)c2F)C[C@@H](C(F)(F)F)OC(N)=N1 [Example 167, N-(3-((4S,6S)-2-amino-4-methyl-6-(trifluoromethyl)-5,6-dihydro-4H-1,3-oxazin-4-yl)-4,5-difluorophenyl)-3-chloro-5-cyanopicolinamide]
- IC50 [1, 4]: 30 nM
- IC50 [2, 5]: 5.7 nM

SMILES: C[C@@]1(c2cc(NC(=O)c3ncc(C(F)F)cc3Cl)cc(F)c2F)C[C@@H](C(F)(F)F)OC(N)=N1 [Example 198, N-(3-((4S,6S)-2-amino-4-methyl-6-(trifluoromethyl)-5,6-dihydro-4H-1,3-oxazin-4-yl)-4,5-difluorophenyl)-3-chloro-5-(difluoromethyl)picolinamide]
- IC50 ([1]; average): 58 nM
- IC50 ([2]; HEK293, HEK cells, average): 15 nM

SMILES: COc1cccnc1Nc1ccc(F)c([C@]2(CF)C[C@@H](C(F)(F)F)OC(N)=N2)c1 [Example 15, (4S,6S)-4-(2-fluoro-5-((3-methoxypyridin-2-yl)-amino)phenyl)-4-(fluoromethyl)-6-(trifluoromethyl)-5,6-dihydro-4H-1,3-oxazin-2-amine]
- IC50 [1, 4]: 165 nM
- IC50 [2, 5]: 122 nM

SMILES: CNC(=O)c1ccnc(Oc2ccc(F)c([C@]3(CF)C[C@@H](C(F)(F)F)OC(N)=N3)c2)c1 [Example 96, 2-(3-((4S,6S)-2-amino-4-(fluoromethyl)-6-(trifluoromethyl)-5,6-dihydro-4H-1,3-oxazin-4-yl)-4-fluorophenoxy)-N-methylisonicotinamide]
- IC50 ([1]; average IC50): 8130 nM
- IC50 [2, 3]: 3270 nM

SMILES: C[C@@]1(c2nc(NC(=O)c3ncc(Br)cc3Cl)ccc2F)C[C@@H](C(F)(F)F)OC(N)=N1 [Example 86, N-(6-((4S,6S)-2-amino-4-methyl-6-(trifluoromethyl)-5,6-dihydro-4H-1,3-oxazin-4-yl)-5-fluoropyridin-2-yl)-5-bromo-3-chloropicolinamide]
- IC50 ([1]; average IC50): 33.6 nM
- IC50 [2, 3]: 21.9 nM

SMILES: CC#CCOc1ccc(C(=O)Nc2cc(F)c(F)c([C@]3(CF)C[C@@H](C(F)(F)F)OC(N)=N3)c2)nc1 [Example 160, N-(3-((4S,6S)-2-amino-4-(fluoromethyl)-6-(trifluoromethyl)-5,6-dihydro-4H-1,3-oxazin-4-yl)-4,5-difluorophenyl)-5-(but-2-yn-1-yloxy)picolinamide]
- IC50 [1, 4]: 3.5 nM
- IC50 [2, 5]: 21 nM

SMILES: COc1cnc2c(Nc3cc(F)c(F)c([C@]4(C)C[C@@H](C(F)(F)F)OC(N)=N4)c3)nccc2c1 [Example 179]
- IC50 [1, 4]: 178 nM
- IC50 [2, 5]: 224 nM

SMILES: NC1=N[C@](CF)(c2cc(NC(=O)c3ccc(Br)cn3)ccc2F)C[C@@H](C(F)(F)F)O1 [Example 52, N-(3-((4S,6S)-2-amino-4-(fluoromethyl)-6-(trifluoromethyl)-5,6-dihydro-4H-1,3-oxazin-4-yl)-4-fluorophenyl)-5-bromopicolinamide]
- IC50 ([1]; average IC50): 10 nM
- IC50 [2, 3]: 17.6 nM

SMILES: COc1cnc(C(=O)Nc2cc(Cl)c(F)c([C@]3(C)C[C@@H](C(F)(F)F)OC(N)=N3)c2)c(C)n1 [Example 215, N-(3-((4S,6S)-2-amino-4-methyl-6-(trifluoromethyl)-5,6-dihydro-4H-1,3-oxazin-4-yl)-5-chloro-4-fluorophenyl)-5-methoxy-3-methylpyrazine-2-carboxamide]
- IC50 ([1]; average): 48 nM
- IC50 ([2]; HEK293, HEK cells, average): 63 nM

SMILES: COc1cnc(C(=O)Nc2ccc(F)c([C@]3(CF)C[C@H](C(F)(F)F)OC(N)=N3)c2)cn1 (racemic) [Example 25, N-(3-((4S,6R)-2-amino-4-(fluoromethyl)-6-(trifluoromethyl)-5,6-dihydro-4H-1,3-oxazin-4-yl)-4-fluorophenyl)-5-methoxypyrazine-2-carboxamide]
- IC50 ([1]; average IC50): 813 nM
- IC50 [2, 3]: 2370 nM

SMILES: COc1cnc2c(Nc3cc(F)c(F)c([C@]4(C)C[C@@H](C(F)(F)F)OC(N)=N4)c3)nccc2n1 [Example 178, (4S,6S)-4-(2,3-difluoro-5-((2-methoxypyrido[3,4-b]pyrazin-5-yl)amino)phenyl)-4-methyl-6-(trifluoromethyl)-5,6-dihydro-4H-1,3-oxazin-2-amine]
- IC50 [1, 4]: 62 nM
- IC50 [2, 5]: 240 nM

SMILES: NC1=N[C@](CF)(c2cc(Oc3cc(C(F)(F)F)ccn3)ccc2F)C[C@@H](C(F)(F)F)O1 [Example 99, (4S,6S)-4-(2-Fluoro-5-((4-(trifluoromethyl)pyridin-2-yl)oxy)phenyl)-4-(fluoromethyl)-6-(trifluoromethyl)-5,6-dihydro-4H-1,3-oxazin-2-amine]
- IC50 ([1]; average IC50): 3170 nM
- IC50 [2, 3]: 3760 nM

SMILES: NC1=N[C@](CF)(c2cc(Nc3ncnc4sc(C(F)F)nc34)ccc2F)C[C@@H](C(F)(F)F)O1 [Example 21, (4S,6S)-4-(5-((2-(difluoromethyl)thiazolo[5,4-d]pyrimidin-7-yl)amino)-2-fluorophenyl)-4-(fluoromethyl)-6-(trifluoromethyl)-5,6-dihydro-4H-1,3-oxazin-2-amine]
- IC50 [1, 4]: 269 nM
- IC50 [2, 5]: 506 nM

SMILES: COc1cnc(C(=O)Nc2cc(F)c(F)c([C@]3(C)C[C@@H](C(F)(F)F)OC(N)=N3)c2)c(C)c1 [Example 202, N-(3-((4S,6S)-2-amino-4-methyl-6-(trifluoromethyl)-5,6-dihydro-4H-1,3-oxazin-4-yl)-4,5-difluorophenyl)-5-methoxy-3-methylpicolinamide]
- IC50 ([1]; average): 61 nM
- IC50 ([2]; HEK293, HEK cells, average): 35 nM

Source: patent publication US9296734B2 (AMGEN INC., priority 2013, dated 2016)
